# According to patent US10822352B2, “Aryl, heteroaryl, and heterocyclic compounds for treatment of medical disorders” (Achillion Pharmaceuticals, Inc., priority 2015, dated 2020):
# Amino acid sequences for entries named in this document (tags omitted). Residues count along the entry.
# UniProt P00746, 26-253: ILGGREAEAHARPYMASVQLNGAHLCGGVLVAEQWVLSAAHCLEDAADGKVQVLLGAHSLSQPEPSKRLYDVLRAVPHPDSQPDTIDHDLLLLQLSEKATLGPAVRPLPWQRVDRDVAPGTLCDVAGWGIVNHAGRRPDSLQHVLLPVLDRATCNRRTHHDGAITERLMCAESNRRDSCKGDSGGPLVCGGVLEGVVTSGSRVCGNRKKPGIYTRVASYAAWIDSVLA
# Target: Human Factor D (Homo sapiens (Human), UniProt P00746)
# Assay: Human Factor D Assay
# Type: biochemical
# Experimental: Human Factor D (purified from human serum, Complement Technology, Inc.) at 80 nM final concentration was incubated with test compound at various concentrations for 5 minutes at room temperature in 50 mM Tris, 1M NaCl, pH 7.5. A synthetic substrate Z-L-Lys-SBzl and DTNB (Ellman's reagent) are added to final concentrations of 100 μM each. […] IC50 values are calculated by nonlinear regression of complement Factor D reaction rates as a function of test compound concentration.
# [1] = Human Factor D 80 nM, substrate Z-L-Lys-SBzl, read-out: IC50
SMILES,IC50 [µM],IC50 [1] [µM]
"CC(=O)c1nn(CC(=O)N2CC3CC2(C(=O)Nc2cccc(Br)n2)C3)c2ccc(-c3cnc4cc(C)nn4c3)cc12 [Compound 689, 2-(2-(3-Acetyl-5-(2-methylpyrazolo[1,5-a]pyrimidin-6-yl)-1H-indazol-1-yl)acetyl)-N-(6-bromopyridin-2-yl)-2-azabicyclo[2.1.1]hexane-1-carboxamide]",< 1,
"NC(=O)c1nn(CC(=O)N2C[C@H](F)C[C@H]2C(=O)Nc2cncc(Br)c2)c2ccc(-c3ccnnc3)cc12 [Compound 90, 1-(2-((2S,4R)-2-(5-bromopyridin-3-ylcarbamoyl)-4-fluoropyrrolidin-1-yl)-2-oxoethyl)-5-(pyridazin-4-yl)-1H-indazole-3-carboxamide]",,1 to 10
"CC(=O)c1cn(CC(=O)N2C[C@H](F)C[C@H]2C(=O)Nc2cccc(OCc3ccccc3)n2)c2ccc(-c3ccnnc3)cc12 [Compound 60, (2S,4R)-1-(2-(3-acetyl-5-(pyridazin-4-yl)-1H-indol-1-yl)acetyl)-N-(6-(benzyloxy)pyridin-2-yl)-4-fluoropyrrolidine-2-carboxamide]",,1 to 10
"CC(=O)c1cn(CC(=O)N2C[C@H](F)C[C@H]2C(=O)Nc2cc(C)nn2-c2ccccc2F)c2ccc(-c3ccnnc3)cc12 [Compound 160, (2S,4R)-1-(2-(3-acetyl-5-(pyridazin-4-yl)-1H-indol-1-yl)acetyl)-4-fluoro-N-(1-(2-fluorophenyl)-3-methyl-1H-pyrazol-5-yl)pyrrolidine-2-carboxamide]",,1 to 10

# Where two headings read alike, the source gives them in different places.
